In patent US5958719A, “Method for the determination of the activity of specific phosphotyrosine phosphatases and specific effectors thereof in intact cells” (Max-Planck Gesellschaft Zur Foderung der Wissenschaften E.V., priority 1995, dated 1999):
Where two headings read alike, the source gives them in different places.

Tested on: PDGF receptor-directed PTPase(s)
Details: relative dephosphorylation after 5 min, control without effector = 100%

O=[As]c1ccccc1 (centres unmarked)
Relative PDGF receptor-directed PTPase activity (% of control) (25 μM): 38 % of control

Na orthovanadate
Relative PDGF receptor-directed PTPase activity (% of control) (2 mM): 34 % of control
